Earlier results, collected in patent publication US7455840B2, “Compositions and methods to reduce mutagenesis” (priority 2003, dated 2008).
Some compounds may have been tested in ways that are not shown here.

By UniProt entry, the sequences of proteins in these tests, tags left out.
UniProt P0A7C2, whole entry: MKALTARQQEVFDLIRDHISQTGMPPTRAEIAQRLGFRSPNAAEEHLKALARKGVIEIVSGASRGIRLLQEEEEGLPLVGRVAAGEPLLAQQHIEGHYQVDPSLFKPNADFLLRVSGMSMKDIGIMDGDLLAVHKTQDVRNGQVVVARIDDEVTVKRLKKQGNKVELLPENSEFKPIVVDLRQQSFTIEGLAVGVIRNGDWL

Molecular target: LexA (Escherichia coli, UniProt P0A7C2)
Conditions: Roland, J. Biol. Chem. (1990); cited from earlier work

For `CC(C)OP(=O)(F)OC(C)C`, which “auto-cleavage of LexA” value is on record?
The value was “inhibits”.
